Measured values taken from US20240148707A1, “MODULATION OF DRUG-DRUG INTERACTIONS OF VADADUSTAT” (Akebia Therapeutics, Inc., priority 2021, published 2024).

Experiments:
Assay type in all cases: in vivo, human
[1] = Phase I drug-drug interaction study with sevelamer carbonate; details: concurrent vadadustat and sevelamer carbonate; 90% CI 57.96-68.16
Method: A phase I, open-label, fixed-sequence study was conducted in healthy adult subjects to assess the effect of sevelamer carbonate as phosphate binders on the pharmacokinetics of a single dose of vadadustat.
Pharmacokinetics. A predose PK blood sample was collected on Day 1. […] The 48-hour postdose sample was collected before vadadustat administration on Days 3, 5, and 7. The following parameters were calculated and analyzed: AUC0-∞, AUC0-last, Cmax, Tmax, Kel, CIB, Vc/F, and t1/2.
Subjects were dosed approximately at the same designated time on each dosing day, where applicable. Study drugs were administered with approximately 8 ounces (240 mL) of water at room temperature in a seated position. Subjects were instructed to drink the full 8 ounces of water, and not to chew or break the tablets/gelcaps.
A single oral dose of vadadustat 300 mg (2×150 mg tablets) was administered on Days 1, 3, 5, and 7. Phosphate binder that is sevelamer carbonate (1600 mg, 2×800 mg tablets) was administered on Days 3, 5, and 7. […]

[2] = Influence of meal on pharmacokinetics, single dose 450 mg; details: single dose 450 mg, healthy adult males
Method: The median tmax of this drug was prolonged by postprandial administration for about 1.5 hours as compared with fasting.

[3] = Phase I drug-drug interaction study with probenecid (Part 1, Arm 2); details: vadadustat 300 mg with vs without probenecid 500 mg Q12h
Method: (§1) A phase I, open-label, 2-part study was conducted in healthy male and female subjects to evaluate the potential for interaction of cyclosporine (Part 1, Arm 1), probenecid (Part 1, Arm 2), and rifampin (Part 2) with vadadustat.
Following a 2-day washout (Days 1 to 2), subjects received 1 oral probenecid 500 mg tablet Q12 h for 4 days (Days 3 to 6). On days that probenecid was administered alone (Days 3, 4, and 6), probenecid was administered in a fasted state 1 hour prior to a standard breakfast and 1 hour prior to an evening meal or snack. On Day 5, probenecid was co-administered with a single dose of vadadustat (300 mg as 2×150 mg tablets) following at least a 10-hour fast. Subjects remained fasted for at least 4 hours after dosing.
On days vadadustat was administered (Day 1 and Day 5), blood samples for PK analysis were collected up to 48 hours postdose. In addition, on vadadustat dosing days, pooled urine samples were collected up to 24 hours post-dose. Subjects were discharged from the CRU on the morning of Day 7, after the final 48-hour post-dose PK sample had been collected. A follow-up phone call was conducted 30 days±2 days after the final dose.

[4] = Phase I drug-drug interaction study with cyclosporine (Part 1, Arm 1); details: vadadustat 300 mg with vs without cyclosporine 500 mg
Method: as §1
Subjects were randomized in a 1:1 ratio to 1 of 2 dosing sequences (A:B or B:A) to receive vadadustat 300 mg alone and vadadustat 300 mg in combination with oral cyclosporine 500 mg in a crossover design. Study drugs were administered in the morning after at least a 10-hour overnight fast. Subjects remained fasted for at least 4 hours post-dose. • Treatment A: a single oral dose of vadadustat (300 mg) administered as 2×150 mg tablets. • Treatment B: a single oral dose of vadadustat (300 mg) administered as 2×150 mg tablets co-administered with a single oral dose of cyclosporine (500 mg) administered as 5×100 mg capsules.
On the morning of Day 1, subjects received the first treatment (A or B). Following a 7-day washout, subjects crossed over to Period 2 to receive the second treatment of the dosing sequence (A or B) on Day 8.
On each dosing day (Day 1 and Day 8) blood samples for PK analysis were collected up to 48 hours post-dose. […] A follow-up phone call was conducted 30 days±2 days after the final dose.

- geometric LS mean ratio of AUC0-∞ to vadadustat alone [1]: 62.85%
- Ratio of the geometric mean of Cmax, fasted or fed ([2]; 90% CI [68%, 79%]): 73%
- Ratio of the geometric mean of AUC0-inf, fasted or fed ([2]; 90% CI [90%, 98%]): 94%
- AUCinf, Ratio (V + P)/V [3]: 182.13%
- AUClast, Ratio (V + P)/V [3]: 178.95%
- Cmax, Ratio (V + P)/V [3]: 102.79%
- AUCinf, Ratio (V + C)/V [4]: 116.89%
- AUClast, Ratio (V + C)/V [4]: 116.97%
- Cmax, Ratio (V + C)/V [4]: 81.76%
SMILES: O=C(O)CNC(=O)c1ncc(-c2cccc(Cl)c2)cc1O [Compound 1, {[5-(3-chlorophenyl)-3-hydroxypyridine-2-carbonyl]amino}acetic acid]
